Target: IR-Rluc (insulin receptor fused to Rluc) (UniProt P06213)
Assay: radioligand binding

- Kd: 0.14 nM
Substance: 125I-Insulin (ligand)
